Measured values taken from publication PMC6332226, “Potent PPARγ Ligands from Swietenia macrophylla Are Capable of Stimulating Glucose Uptake in Muscle Cells” (Molecules, 2015).

The chains behind the UniProt entries cited, without tags or fusion partners. Residues count along the entry.
UniProt P37231, 135-505: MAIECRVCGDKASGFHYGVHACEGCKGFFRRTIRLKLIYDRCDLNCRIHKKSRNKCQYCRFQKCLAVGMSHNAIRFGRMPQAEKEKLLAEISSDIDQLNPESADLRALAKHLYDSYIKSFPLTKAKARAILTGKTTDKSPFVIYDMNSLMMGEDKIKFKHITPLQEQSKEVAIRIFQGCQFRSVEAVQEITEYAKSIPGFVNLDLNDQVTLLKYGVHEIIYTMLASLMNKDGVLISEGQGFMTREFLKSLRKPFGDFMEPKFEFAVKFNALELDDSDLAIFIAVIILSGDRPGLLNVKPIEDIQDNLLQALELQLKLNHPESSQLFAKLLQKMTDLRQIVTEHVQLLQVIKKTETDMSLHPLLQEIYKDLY

Key:
[1] = target: T1, recombinant PPARγ (Homo sapiens, UniProt P37231); test: ELISA PPARγ-binding assay (ligand-dependent binding of PPARγ to p300 coactivator); settings: highest binding; p300-coated plate, absorbance 405 nm
T1 construct: amino acid positions 107–477 for PPARγ; His tag (pET28a) (N); made in house; host or cells: E. coli BL21

[2] = system: 3T3-L1 preadipocyte cells; test: Adipocyte differentiation assay, Oil Red O staining of lipid droplets; format: cell-based; settings: 200 nM rosiglitazone, day 7
Experimental: Figure 4 The semi-quantification of lipid droplets produced by differentiated 3T3-L1 cells at day 7 after the compound treatment. The quantification was performed by dissolving the cells in isopropanol and measuring the absorbance read out at 510 nm. […] The symbol ** denotes a significant difference at p < 0.01 compared with DMSO (Tukey’s test, n = 3).
3T3-L1 and C2C12 cells were purchased from the American Type Culture Collection (Manassas, VA, USA). The 3T3-L1 and C2C12 cells were maintained in DMEM medium supplemented with 10% (v/v) bovine serum and 10% (v/v) fetal bovine serum (FBS), respectively. The differentiation of adipocytes was initiated two days after the cells reached confluence by adding 0.5 mM isobutyl methylxanthine (IBMX), 1 µM dexamethasone and 1 µg/mL insulin to DMEM containing 10% (v/v) FBS. Two days later, the differentiation medium was replaced by DMEM containing 10% (v/v) FBS and 1 µg/mL insulin. These differentiated cells were stabilized in DMEM + 10% (v/v) FBS for another 2 days. […]
Adipocyte differentiation is one of the major cellular responses upon PPARγ activation. […] The trapped ORO between the lipid droplets was then dissolved in absolute isopropanol, and the absorbance of the dissolved ORO was semi-quantitatively measured by a SpectraMax M5 multi-detection microplate reader (Molecular Devices) at a wavelength of 510 nm.

[3] = system: differentiated 3T3-L1 adipocyte cells; test: mRNA expression of PPARγ and adipogenic markers by quantitative RT-PCR; format: cell-based; settings: 50 nM rosiglitazone, 7 days, vs DMSO
Experimental: Figure 5 The analysis of PPARγ and selected adipogenic gene expression in differentiated 3T3-L1 adipocyte cells with quantitative RT-PCR. […] The expression values were normalized against a housekeeping gene, β-actin.
For the gene expression study, mature 3T3-L1 adipocytes were lysed 7 days after the induction of cellular differentiation. The total RNA samples were prepared according to the manufacturer's protocol (TRIzol reagent, Invitrogen Life Technologies, Carlsbad, CA, USA). The mRNA expression of the target genes was measured by quantitative RT-PCR with an iCycler iQ5 PCR Thermal Cycler (Bio-Rad Laboratories, Hercules, CA, USA). The primers for the adipogenesis-related genes, adiponectin, adipsin, GLUT4 and PPARγ, were designed using Primer 3 software (Table 1). Real-time PCR was performed according to the manufacturer’s protocol (SYBR-Green One-Step Quantitative RT-PCR). Briefly, 5 ng of total RNA, 50 nM of each primer, iScript RT enzyme and the universal SYBR Green reaction mix (Bio-Rad Laboratories) were mixed well in a final volume of 30 µL. All the PCR reactions were performed as follows: 1 cycle of 50 °C for 2 min and 95 °C for 10 min, followed by 40 cycles of 95 °C for 15 s and 60 °C for 1 min. The PCR products were subjected to a melting-curve analysis. […]

CN(CCOc1ccc(CC2SC(=O)NC2=O)cc1)c1ccccn1 (stereo not drawn) [Rosiglitazone, rosiglitazone, reference compound]
fold increase of binding between PPARγ and coactivator compared to vehicle (DMSO) [1]: 9 fold | ORO stained lipid droplets, fold higher than vehicle (DMSO) [2]: 2.8 fold | PPARγ mRNA expression, fold elevation [3]: five- to six
